Among the data in PubChem BioAssay AID463187 (University of Pittsburgh Molecular Library Screening Center, 2010) are inhibition values, retold here.

Protein sequences, listed by entry. Tags and fused reporters are not part of them.
UniProt P08631, whole entry, looked up: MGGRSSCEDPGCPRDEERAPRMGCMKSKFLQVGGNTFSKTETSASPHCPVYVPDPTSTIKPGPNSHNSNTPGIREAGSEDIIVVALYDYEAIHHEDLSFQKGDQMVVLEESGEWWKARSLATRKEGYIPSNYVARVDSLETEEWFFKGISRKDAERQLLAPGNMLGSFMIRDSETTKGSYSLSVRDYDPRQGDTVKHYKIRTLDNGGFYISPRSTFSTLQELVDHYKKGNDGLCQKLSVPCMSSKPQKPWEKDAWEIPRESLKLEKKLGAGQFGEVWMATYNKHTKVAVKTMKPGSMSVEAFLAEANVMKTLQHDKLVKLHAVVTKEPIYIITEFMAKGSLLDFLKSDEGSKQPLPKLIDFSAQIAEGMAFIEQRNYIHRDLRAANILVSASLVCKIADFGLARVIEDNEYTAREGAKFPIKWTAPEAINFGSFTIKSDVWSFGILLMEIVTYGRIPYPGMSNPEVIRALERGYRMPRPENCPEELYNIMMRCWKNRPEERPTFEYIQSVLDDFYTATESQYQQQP

This is a selection; strong and weak results do not stand in their true shares. Some of these compounds have results that are not shown, active ones among them. The source made the active and inactive calls.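 How the source made its calls: active means Hck-Nef kinase inhibition above about 50% (limit read from the data); inactive means inhibition below that limit.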

The target in this assay is Tyrosine-protein kinase HCK (Homo sapiens) (UniProt P08631). Description: inhibitors of Nef-activated human Hck kinase, primary screen, biochemical, Z-Lyte FRET, 384-well, Hck-YEEI (AID 463187).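 Further: 0% = DMSO with Hck plus Nef and 100% = Hck alone without Nef.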 Particulars: Recombinant Hck-YEEI plus Nef, Z-Lyte FRET kinase assay; at 20 µM; active compounds read high.
Regarding `COc1cccc(C(=O)NCC2(N3CCCCC3)CCCCC2)c1`, the inhibition is inactive: 17.2%.
Turning to `CN(C)c1cccc(C(=O)NCC2(N(C)C)CCCCC2)c1`, the inhibition is inactive: 1.86%.
Consider `COc1ccc(Br)c(C(=O)NCC2(N3CCCCC3)CCCCC2)c1`, for which the inhibition is inactive: 3.73%.
As to `O=C(OC1CN2CCC1CC2)C(CO)(c1ccccc1)c1ccccc1` (stereo unspecified), the inhibition was inactive: 0.575%.
On to `CC(C)N1C(=O)CC2(CCN(CCOC(=O)C(O)(c3ccccc3)c3ccccc3)CC2)C1=O`, for which the inhibition was inactive: -0.897%.
In the case of `CCN(CC)CC(C)C(C)OC(=O)C(O)(c1ccccc1)c1ccccc1` (stereo unspecified) it was inactive: 18.7%; in that of `O=C(NCC1(N2CCCCC2)CCCCC1)c1cc([N+](=O)[O-])ccc1Cl`, inactive: 16.7%.
With `CCN1CCCC(OC(=O)C2(O)c3ccccc3C=Cc3ccccc32)C1` (stereo unspecified), the inhibition is inactive: 4.69%.
In the case of `C=CCN1CCN(CCOC(=O)C(O)(c2ccccc2)c2ccccc2)CC1` it was inactive: 17.4%; in that of `Cc1ccccc1C(=O)NCC1(N2CCCCC2)CCCCC1`, inactive: 20.7%.
With `CN(C)C1CCCC1OC(=O)C(O)(c1ccccc1)c1ccccc1` (stereo unspecified), the inhibition is inactive: 0.899%.

The inhibition is the relative decrease from the control value, in per cent.
